Assay results: US5763625A, “Synthesis and use of β-lapachone analogs” (priority 1995, dated 1998)
“Also recorded” adds a separate entry of the source.

Tested on: Topo I enzyme activity in U1-Mel cells
Test: Down-regulation of Topo I activity in irradiated U1-Mel cells with ADPRT inhibitors
Type: cell-based, human
Conditions: 0.5 μM

With `Cc1cccc2c1CCNC2=O` [PD 1] the “effect on down-regulation of Topo I enzyme activity” value (1 hour prior to or 4 hours immediately after 400 cGy) was “prevented the down-regulation; also recorded: restored Topo I activity” and the “effect on down-regulation of Topo I activities after UV-irradiation” value (UV-irradiation 10 J/M^2) was “prevented this down-regulation”.
